Earlier results as cited in patent publication US20140179779A1, “Deuterium Substituted Fumarate Derivatives” (Biogen IDEC MA Inc., priority 2012, published 2014).

Test system: ALS
Conditions: ALS patients; cited from earlier work

For Nc1nc2ccc(OC(F)(F)F)cc2s1 [Rilutek (riluzole), riluzole], the extension of survival is given as “approximately 3 months”.
